In publication PMC10853020 (Journal of medicinal chemistry, 2023):

Tested on: hMDRI-MDCKII cells
Assay: MDCK-MDR1 permeability
Details: from efflux ratios in absence or presence of P-gp inhibitor

P-gp substrate: not a predicted substrate for P-gp
SMILES: CCCCCCCC/C=C\CCCCCCCC(=O)NC(CO)(CO)CO [Compound 13, N-(1,3-Dihydroxy-2-(hydroxymethyl)propan-2-yl)oleamide]
